From article PMC7674511

Molecular target: BAG6 LIR1 peptide (residues 124-143) (UniProt P46379)
Assay: fluorescence polarisation; fluorescence anisotropy; peptide at 1 μM, LC3B-I or Pro-LC3B added from 0 to 50 μM; Kd by nonlinear curve fitting; three independent experiments

Substance: Pro-LC3B (from UniProt Q9GZQ8 1-120) (natural protein)
- Kd: 17.7 µM
